From BindingDB's records for PubMed 1656026 (University of Nebraska, 1991)

Target: Alpha-2C adrenergic receptor

Compound	Ki [nM]
Cc1ccc(N(CC2=NCCN2)c2cccc(O)c2)cc1 [SMR000059054]	9.7
Cc1cc(C(C)(C)C)c(O)c(C)c1CC1=NCCN1 [SMR000059324]	31
CN(C)CCCN1c2ccccc2Sc2ccc(Cl)cc21 [[3-(2-Chloro-phenothiazin-10-yl)-propyl]-dimethyl-amine(Chlorpromazine)]	37
